Amino acid sequences for entries named in this document (tags omitted).
UniProt P81908, whole entry: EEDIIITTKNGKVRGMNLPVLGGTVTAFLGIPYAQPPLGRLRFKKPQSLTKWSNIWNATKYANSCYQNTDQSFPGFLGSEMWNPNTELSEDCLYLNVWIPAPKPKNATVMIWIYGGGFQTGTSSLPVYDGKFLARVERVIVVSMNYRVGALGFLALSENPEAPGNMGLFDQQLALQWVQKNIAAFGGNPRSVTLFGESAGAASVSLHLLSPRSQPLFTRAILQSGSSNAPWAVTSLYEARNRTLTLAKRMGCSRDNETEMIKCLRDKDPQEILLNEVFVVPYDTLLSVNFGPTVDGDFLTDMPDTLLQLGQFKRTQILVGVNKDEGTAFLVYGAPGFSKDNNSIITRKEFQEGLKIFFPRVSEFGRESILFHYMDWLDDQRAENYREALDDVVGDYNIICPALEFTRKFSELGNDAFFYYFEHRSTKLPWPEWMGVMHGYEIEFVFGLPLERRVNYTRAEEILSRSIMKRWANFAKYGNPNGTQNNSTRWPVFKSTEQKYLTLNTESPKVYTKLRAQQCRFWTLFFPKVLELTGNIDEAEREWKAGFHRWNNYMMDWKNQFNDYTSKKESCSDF

According to ChEMBL document CHEMBL2390867, “Design, synthesis and evaluation of novel tacrine-coumarin hybrids as multifunctional cholinesterase inhibitors against Alzheimer's disease” (Eur J Med Chem, 2013):

Target: Cholinesterase (Equus caballus, UniProt P81908)

In the case of O=c1ccc2ccc(O)cc2o1 [UMBELLIFERONE], the IC50 is reported as > 500 µM.
